Data: PubChem BioAssay AID588358 (NMMLSC, 2011)
Only a part is listed here, and it is no random draw. Activity calls are given as the source filed them.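 The calls were made as follows: active = binding more than 3 SD below its plate's average and above zero; inconclusive = below that plate limit but binding exactly zero; inactive = the rest.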

Chains of the proteins cited; added tags and fusions are not shown.
UniProt P32926, whole entry, looked up: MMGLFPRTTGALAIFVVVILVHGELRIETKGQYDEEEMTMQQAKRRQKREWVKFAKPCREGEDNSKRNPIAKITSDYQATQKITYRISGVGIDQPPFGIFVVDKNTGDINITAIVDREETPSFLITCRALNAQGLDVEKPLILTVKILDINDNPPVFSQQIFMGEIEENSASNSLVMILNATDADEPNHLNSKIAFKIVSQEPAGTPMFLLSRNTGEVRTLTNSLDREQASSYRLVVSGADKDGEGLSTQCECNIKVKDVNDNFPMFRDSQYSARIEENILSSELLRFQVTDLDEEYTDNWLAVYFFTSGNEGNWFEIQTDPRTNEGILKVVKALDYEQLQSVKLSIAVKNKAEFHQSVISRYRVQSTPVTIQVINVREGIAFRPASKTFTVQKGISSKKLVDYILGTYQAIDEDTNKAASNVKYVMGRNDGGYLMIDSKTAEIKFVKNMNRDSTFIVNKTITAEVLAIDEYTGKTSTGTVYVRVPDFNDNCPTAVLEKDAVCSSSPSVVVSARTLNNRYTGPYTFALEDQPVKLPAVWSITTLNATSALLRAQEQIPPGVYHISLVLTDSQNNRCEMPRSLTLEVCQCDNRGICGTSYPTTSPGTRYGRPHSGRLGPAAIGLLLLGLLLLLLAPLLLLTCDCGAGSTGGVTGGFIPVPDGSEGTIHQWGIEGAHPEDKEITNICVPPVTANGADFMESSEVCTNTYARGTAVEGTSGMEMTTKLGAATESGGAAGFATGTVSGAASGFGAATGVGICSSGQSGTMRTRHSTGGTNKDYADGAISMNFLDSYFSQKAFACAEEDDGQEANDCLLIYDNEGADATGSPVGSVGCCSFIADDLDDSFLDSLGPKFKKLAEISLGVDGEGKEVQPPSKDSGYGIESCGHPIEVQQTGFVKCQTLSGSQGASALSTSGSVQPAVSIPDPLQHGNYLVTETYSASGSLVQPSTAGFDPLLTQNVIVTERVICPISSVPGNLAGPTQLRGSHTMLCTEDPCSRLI

target: Desmoglein-3 (Homo sapiens) (UniProt P32926); assay: inhibitors of pemphigus antibody binding to DSG3, primary screen, biochemical, bead-based, flow cytometry, scFv-GFP (AID 588358); conditions: DSG3-coupled beads, scFv-anti-DSG3-GFP binding, at 10 µM, stronger effect = lower value;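 also: hits lower antibody fragment binding to DSG3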

Compound | binding (percent of control)
CCC(=O)N(c1ccccc1)C1(COC)CCN(CCc2cccs2)CC1 | inactive: 103%
CCC(=O)N(c1ccccc1)C1(COC)CCN(CCn2nnn(CC)c2=O)CC1 | inactive: 95.3%
